System: BT-474 cells
Details: BT-474 transfected with GFP-caveolin-1; T-DM1 72 hours
Protocol: BT-474 cells were grown on plates in normal growth medium without antibiotics, and Lipofectamine 2000 transfection reagent (Invitrogen, ThermoFisher, Waltham, Mass., USA) was used to induce GFP-tagged caveolin-1 (Addgene, Cambridge, Mass., USA) overexpression. Caveolin-1siRNA (Dharmacon, GE health care, Lafayette, Colo., USA) was used in the knockdown experiment in SKBR-3 cells.

In the case of trastuzumab emtansine [T-DM1], the “T-DM1 cytotoxicity on overexpression of CAV-1” value is reported as “increased T-DM1 cytotoxicity”.
